pIC50: −log10 of the molar value.
Molecular target: rSERT (Rattus norvegicus, UniProt P31652)
Experiment: [3H]5-HT uptake inhibition in rat brain synaptosomes

Amino acid sequences for entries named in this document (tags omitted).
UniProt P31652, whole entry: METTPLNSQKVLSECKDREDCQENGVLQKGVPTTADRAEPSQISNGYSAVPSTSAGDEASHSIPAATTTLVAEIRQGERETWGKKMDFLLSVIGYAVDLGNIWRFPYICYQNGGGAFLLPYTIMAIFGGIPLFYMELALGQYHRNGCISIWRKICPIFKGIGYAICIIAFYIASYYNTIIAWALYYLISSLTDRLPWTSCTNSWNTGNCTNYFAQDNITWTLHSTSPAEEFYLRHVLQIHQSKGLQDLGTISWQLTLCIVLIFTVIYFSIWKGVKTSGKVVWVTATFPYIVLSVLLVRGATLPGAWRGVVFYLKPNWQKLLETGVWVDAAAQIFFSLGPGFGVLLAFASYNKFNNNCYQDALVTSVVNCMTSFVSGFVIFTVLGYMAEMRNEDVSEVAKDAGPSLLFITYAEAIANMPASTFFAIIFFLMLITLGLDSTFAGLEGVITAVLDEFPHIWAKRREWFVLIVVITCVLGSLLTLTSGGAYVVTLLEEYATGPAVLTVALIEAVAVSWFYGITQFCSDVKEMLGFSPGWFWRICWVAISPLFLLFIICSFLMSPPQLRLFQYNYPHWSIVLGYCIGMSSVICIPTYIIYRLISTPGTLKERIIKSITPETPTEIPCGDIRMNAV

COC(=O)[C@H]1[C@@H](OC(=O)c2ccccc2)C[C@@H]2CC[C@H]1N2C [Cocaine]
pIC50: 6.58

— paper PMC9301952 (ACS Omega, 2022)
